Experimental data as given in patent US12552769B2.

Columns and labels:
UGT [1] = assay: Metabolic stability test (UGT), rat microsomes; details: Rat liver or small intestine microsomes 0.5 mg protein/mL, compound 1 μM, UDPGA 2 mM, 5 minutes at 37° C.
Solubility test = details: JP2 solution (pH 6.8), 10 mM DMSO solution diluted 50-fold, incubation 16 to 24 hours
UGT [2] = assay: Metabolic stability test (UGT), guinea pig microsomes; details: Guinea pig liver or small intestine microsomes 0.5 mg protein/mL, compound 1 μM, UDPGA 2 mM, 5 minutes at 37° C.
[3] = Blood concentration (plasma pharmacokinetics after oral administration); details: guinea pigs, oral 10 mg/kg, mean (n = 2)

**Q.** With `CC(C)C(=O)NCc1ccc(C(F)(F)F)c(-c2nc(-c3ccc(C(F)(F)F)cn3)cc(=O)[nH]2)c1F` as the molecule, how does the UGT metabolic stability (UGT [1]) read?
**A.** 279 μL/min/mg protein

**Q.** And the Solubility (Solubility test)?
**A.** 5.3 µg/mL (≈ 10.5 µM)

**Q.** And the UGT metabolic stability (UGT [2])?
**A.** 230 μL/min/mg protein

**Q.** What about the AUC0-t [3] of the same molecule?
**A.** 4.7047 µM·h

**Q.** What about the “AUC0-∞” value [3] of the same molecule?
**A.** 4.9954 µM·h

**Q.** And the Cmax [3]?
**A.** 1260 nM

**Q.** What about the “MRT0-∞” value [3] of the same molecule?
**A.** 7.3 h

**Q.** And the Tmax [3]?
**A.** 0.5 h

**Q.** What about the t1/2 [3] of the same molecule?
**A.** 6.0 h

≈ marks a conversion by molar mass, not a printed value.
